According to patent publication US9216181B2, “BMP-2 upregulating compounds for healing bone tissue and screening methods for selecting such compounds” (Southwest Research Institute, priority 2011, dated 2015):

Test system: C3H10T1/2 cells
Assay: Visual observation of morphological differentiation of C3H10T1/2 MSC
Format: cell-based, mouse
Conditions: enhanced medium withdrawn before addition
Description: Conveniently the post-confluent cell line is known to be sensitive to BMP-2 induced chondrogenesis and osteogenenesis (Shea, C. M., et al., “BMP treatment of C3H10T1/2 mesenchymal stem cells induces both chondrogenesis and osteogenesis”, J. Cell Biochem, 2003; 90: 1112). The sequence of differentiation follows chondrogenesis→osteogenesis and demands a continuous exposure to BMP-2 or the cells re-differentiate by default into adipocyctes.
The C3H10T1/2 cells were grown in an enhanced growth medium of BGjb (Irvine Scientific, Santa Ana, Calif.). The enhanced medium was withdrawn prior to adding positive controls, BMP-2, Lovastatin and PS-1. Cell differentiation was induced by this protocol and morphological changes were observed by visual observation. […] While it is possible that some of the osteoblastic type structures identified were chondroblasts, chondroblasts and osteoblasts can appear rather similar since both are symmetric cells and differentiation into either is indicative of the bone repair process.

B1: BMP-2: bone morphogenetic protein-2, growth factor used as positive control (protein, UniProt P12643 283-396, looked up)
Bone morphogenetic protein 2: QAKHKQRKRLKSSCKRHPLYVDFSDVGWNDWIVAPPGYHAFYCHGECPFPLADHLNSTNHAIVQTLVNSVNSKIPKACCVPTELSAISMLYLDENEKVVLKNYQDMVVEGCGCR
Q: For B1, which “morphological changes by visual observation” value is on record?
A: The value was “promoted differentiation into osteoblastic type structure and promoted cell proliferation”.
